Assay results reported in patent publication US20250288704A1, “CXCR4-LIGANDS FOR DIAGNOSTIC AND THERAPEUTIC USE AND PRECURSORS THEREOF” (priority 2021, published 2025).
Non-standard residues stand in square brackets, D forms with d. Residues, ends and D or L forms follow the SMILES beside them. Groups on a side chain read outwards from the residue. *: point of attachment. 2Nal = N[C@@H](Cc1ccc2ccccc2c1)C(=O)O; dNMeOrn = CN[C@H](CCCN)C(=O)O; 4Abz = Nc1ccc(C(=O)O)cc1; X1 = NCCNCC(CNCCN)C(=O)*; dDap = NC[C@@H](N)C(=O)O

Assay: Octanol/PBS partition coefficient (logD7.4)
Type: physicochemical
Details: n-octanol/PBS pH 7.4, radiolabeled compound; listed as [^99mTc]Tc-CXCR4-14

## C[C@@H](NC(=O)[C@@H](CCCNC(=N)N)NC(=O)[C@@H](CN)NC(=O)C(CNCCN)CNCCN)C(=O)Nc1ccc(C(=O)NCCC[C@@H]2C(=O)N[C@@H](CCCNC(=N)N)C(=O)N[C@@H](Cc3ccc4ccccc4c3)C(=O)NCC(=O)N[C@H](Cc3ccc(O)cc3)C(=O)N2C)cc1 [Tc-CXCR4-14] (cyclo([dY][dNMeOrn]([4Abz-dA-dR-dDap-X1])R[2Nal]G))
  logD7.4: −1.75 ± 0.08 (8)
